Laboratory results taken from patent US9540379B2 (priority 2011, dated 2017).

Chains of the proteins cited; added tags and fusions are not shown. A line that says so, or that is headed by a name, gives the form on record, which may keep a tag or linker.
UniProt Q9Y233, other isoform, or with tags, fused parts or gaps: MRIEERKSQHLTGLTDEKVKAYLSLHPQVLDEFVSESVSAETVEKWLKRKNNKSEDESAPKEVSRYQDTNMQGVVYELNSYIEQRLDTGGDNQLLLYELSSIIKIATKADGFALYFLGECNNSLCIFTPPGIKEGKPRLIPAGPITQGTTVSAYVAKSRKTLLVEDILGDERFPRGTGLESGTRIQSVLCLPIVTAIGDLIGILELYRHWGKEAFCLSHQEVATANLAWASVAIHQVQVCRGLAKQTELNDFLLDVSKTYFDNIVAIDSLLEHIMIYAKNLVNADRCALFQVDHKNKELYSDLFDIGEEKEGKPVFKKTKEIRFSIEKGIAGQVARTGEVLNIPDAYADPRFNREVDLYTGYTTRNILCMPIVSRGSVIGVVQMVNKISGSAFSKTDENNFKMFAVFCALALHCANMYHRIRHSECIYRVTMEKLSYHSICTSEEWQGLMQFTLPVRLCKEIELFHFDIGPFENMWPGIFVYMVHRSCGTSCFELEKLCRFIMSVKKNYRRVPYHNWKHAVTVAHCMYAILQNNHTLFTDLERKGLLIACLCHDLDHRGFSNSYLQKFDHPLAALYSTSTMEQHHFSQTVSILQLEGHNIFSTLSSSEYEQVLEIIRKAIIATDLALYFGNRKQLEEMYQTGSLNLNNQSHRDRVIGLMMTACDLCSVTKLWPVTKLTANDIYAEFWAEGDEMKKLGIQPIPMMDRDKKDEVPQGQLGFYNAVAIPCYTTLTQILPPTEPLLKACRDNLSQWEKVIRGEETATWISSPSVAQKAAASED

What follows are substances tested against PDE10A (Homo sapiens (Human), UniProt Q9Y233). Settings: read-out: Inhibition of PDE10A, IC50.

Substance	pIC50
1-[2-Fluoro-5-(4-phenoxy-butoxy)-phenyl]-4-methyl-[1,2,4]triazolo[4,3-a]quinoxaline [Example 42]	< 6.00
4-Methyl-1-(3-methyl-pyridin-4-yl)-[1,2,4]triazolo[4,3-a]quinoxaline [Example 39]	6.03
1-(2-Chloro-5-methoxy-phenyl)-4-methyl-[1,2,4]triazolo[4,3-a]quinoxaline [Example 38]	6.52

pIC50: −log10 of the molar value.
